Results reported in patent US8034936B2, “Spirocyclic cyclohexane compounds useful to treat substance dependency” (Gruenenthal GmbH, priority 2005, dated 2011).

The chains behind the UniProt entries cited, without tags or fusion partners. Where a name states a change or a piece, a line headed by the entry shows the natural chain unless it says otherwise.
UniProt P41146: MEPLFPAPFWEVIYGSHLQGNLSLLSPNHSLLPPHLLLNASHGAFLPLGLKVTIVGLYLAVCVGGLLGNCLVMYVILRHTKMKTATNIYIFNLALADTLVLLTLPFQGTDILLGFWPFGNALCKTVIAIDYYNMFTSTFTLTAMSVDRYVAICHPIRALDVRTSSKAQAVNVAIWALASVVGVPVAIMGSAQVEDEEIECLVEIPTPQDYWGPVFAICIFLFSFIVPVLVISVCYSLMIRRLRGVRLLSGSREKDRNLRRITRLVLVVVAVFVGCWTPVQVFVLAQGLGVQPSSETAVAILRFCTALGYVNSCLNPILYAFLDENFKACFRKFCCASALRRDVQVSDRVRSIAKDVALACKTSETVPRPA
UniProt P35372, whole entry, looked up: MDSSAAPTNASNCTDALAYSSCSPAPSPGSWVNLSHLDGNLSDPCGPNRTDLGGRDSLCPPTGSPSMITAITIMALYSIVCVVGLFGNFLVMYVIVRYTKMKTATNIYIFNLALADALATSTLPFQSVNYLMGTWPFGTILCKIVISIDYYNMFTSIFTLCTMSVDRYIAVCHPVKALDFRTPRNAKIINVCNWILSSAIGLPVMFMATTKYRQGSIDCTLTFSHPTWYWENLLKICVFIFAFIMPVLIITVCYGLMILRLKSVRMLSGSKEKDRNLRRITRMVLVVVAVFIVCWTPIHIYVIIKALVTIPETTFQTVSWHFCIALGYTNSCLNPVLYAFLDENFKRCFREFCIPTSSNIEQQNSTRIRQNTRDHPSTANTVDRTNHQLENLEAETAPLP

Tests used:
conscious Beagle dogs = experiment: ECG, conscious dog; conditions: 10 μg/kg i.v.
mice = experiment: Jumping test in mice (naloxone-induced withdrawal jumping); format: in vivo; conditions: test substance i.p. seven times over two days, 30 mg/kg naloxone i.p.
ORL1 receptor = ORL1 receptor (Homo sapiens, UniProt P41146); experiment: ORL1 receptor binding assay with 3H-nociceptin/orphanin FQ, membranes of recombinant CHO-ORL1 cells
human μ-opiate receptor = human μ-opiate receptor (Homo sapiens, UniProt P35372); experiment: μ-opiate receptor binding, [3H]-naloxone displacement, CHO-K1 membrane preparation

Q: Which “Heart rate observation” value (conscious Beagle dogs) does the source give for `CN(C)C1(c2ccccc2)CCC2(CC1)OCCc1c2[nH]c2ccccc12` (stereo not shown) here?
A: Significant Bradycardia

Q: What about the PR interval (conscious Beagle dogs) of the same compound?
A: No effect on the PRinterval

Q: What about the “QTc [van der Water]” value (conscious Beagle dogs) of the same compound?
A: Non-significant extension

Q: What about the heart rate change (conscious Beagle dogs) of the same compound?
A: (heart rate: −40%)

Q: And the “increase in the QRS time” value (conscious Beagle dogs; slight, significant)?
A: Slight (<10%) significant

Q: What about the “withdrawal jumping triggered by naloxone” value (mice) of the same compound?
A: no, or only a minimal, withdrawal behaviour

Q: For `CN(C)C1(c2cccs2)CCC2(CC1)OCCc1c2[nH]c2ccccc12` (stereo not shown), which “withdrawal jumping triggered by naloxone” value (mice) is on record?
A: no, or only a minimal, withdrawal behaviour

Q: With `CCCCC(=O)N1CCc2c([nH]c3ccccc23)C12CCC(c1cccc(F)c1)(N(C)C)CC2` (stereo not shown) as the compound, how does the ORL1/μ ratio (ORL1 receptor; No. 50-145) read?
A: 3.42

Q: What about the Ki (ORL1 receptor; read-out: ORL1, Ki, No. 50-145) of the same compound?
A: 3.8 nM

Q: What about the Ki (human μ-opiate receptor; read-out: μ, Ki, No. 50-145) of the same compound?
A: 13 nM

Q: Which ORL1/μ ratio (ORL1 receptor; No. 50-145) does the source give for `CN(C)C1(c2cccc(F)c2)CCC2(CC1)c1[nH]c3ccccc3c1CCN2C(=O)/C=C/c1ccccc1` (stereo not shown) here?
A: 21.43

Q: And the Ki (ORL1 receptor; read-out: ORL1, Ki, No. 50-145)?
A: 1.4 nM

Q: What about the Ki (human μ-opiate receptor; read-out: μ, Ki, No. 50-145) of the same compound?
A: 30 nM

Q: Which results are given for `CN(C)C1(c2cccc(F)c2)CCC2(CC1)c1[nH]c3ccccc3c1CCN2C(=O)c1cc(C(F)(F)F)ccc1F` (stereo not shown)?
A: ORL1/μ ratio (ORL1 receptor; No. 50-145): 0.80; Ki (ORL1 receptor; read-out: ORL1, Ki, No. 50-145): 110 nM; Ki (human μ-opiate receptor; read-out: μ, Ki, No. 50-145): 88 nM

Q: How did the “ORL1/μ Ratio calculated as Ki(μ)/Ki(ORL1)” value (ORL1 receptor; No. 1-49) turn out when `CN(C)C1(c2ccccc2)CCC2(CC1)OCCc1c2[nH]c2c(Cl)c(Cl)ccc12` (stereo not shown) was run?
A: 0.31

Q: And the Ki (ORL1 receptor; read-out: ORL1 human Ki, No. 1-49)?
A: 4.5 nM

Q: And the Ki (human μ-opiate receptor; read-out: μ Ki, No. 1-49)?
A: 1.4 nM

Q: What does the source list for `COc1ccccc1C(=O)N1CCc2c([nH]c3ccccc23)C12CCC(c1ccccc1)(N(C)C)CC2` (stereo not shown)?
A: ORL1/μ ratio (ORL1 receptor; No. 50-145): 0.43; Ki (ORL1 receptor; read-out: ORL1, Ki, No. 50-145): 46 nM; Ki (human μ-opiate receptor; read-out: μ, Ki, No. 50-145): 20 nM

Like-named read-outs stand apart in the source and are kept apart here.
